This is a selection; strong and weak results do not stand in their true shares. Active and inactive are the calls of the source.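 The calls were made as follows: active = mean inhibition over replicate wells above about 20% (limit read from the data); inactive = the rest.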

Sequences of proteins named here, by UniProt entry; tags and fusion partners are left off.
UniProt Q9Y5K5, whole entry: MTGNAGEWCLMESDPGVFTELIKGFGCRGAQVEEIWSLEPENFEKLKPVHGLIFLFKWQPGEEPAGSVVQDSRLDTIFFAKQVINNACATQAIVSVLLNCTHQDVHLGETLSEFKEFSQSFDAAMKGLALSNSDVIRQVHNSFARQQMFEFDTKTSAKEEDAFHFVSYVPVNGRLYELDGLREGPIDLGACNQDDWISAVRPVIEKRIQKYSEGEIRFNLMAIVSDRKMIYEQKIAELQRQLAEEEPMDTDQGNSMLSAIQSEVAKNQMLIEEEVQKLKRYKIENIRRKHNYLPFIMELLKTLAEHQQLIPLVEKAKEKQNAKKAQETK

For 70 compounds, inhibition results are on record in PubChem BioAssay AID588478 (ICCB-Longwood Screening Facility, Harvard Medical School, 2011).

For the experiment, the target named is Ubiquitin carboxyl-terminal hydrolase isozyme L5 (Homo sapiens) (UniProt Q9Y5K5). The experiment can be described thus: proteasome-bound UCH37 DUB activity blockers – biochemical, Ub-AMC cleavage, fluorescence, primary screen (AID 588478).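 Also: 0% = compound-free wells with enzyme and 100% = wells lacking proteasome.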 Particulars: purified proteasome/UCH37, Ub-AMC cleavage fluorescence; hits give high values; concentration not given here. The essentials: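 system = Proteasome-associated human UCH37 deubiquitinase | amount = 0.15 nM proteasome as dispensed | medium = pH 7.4 Tris-HCl (50 mM) with ovalbumin, ATP-MgCl2, DTT | incubation = 30 min preincubation with enzyme, 25 min cleavage at room temperature | detection = AMC fluorescence 355/460 nm | read-out basis = percent inhibition | controls = no-proteasome and no-compound wells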
By inhibition is commonly meant the drop in the measured response relative to a control, in per cent. For `O=C(NCC1(N2CCCCC2)CCCCC1)c1cncc(Br)c1`, the inhibition is inactive: 0.378%.
`CCCOc1ccc(C(=O)NCC2(N(C)C)CCCCC2)cc1OC`: the inhibition was inactive: 3.37%.
With `COc1ccc(CN(CCCl)CCCl)cc1Cl` the figure was inactive: 5.97%; with `CN(C)c1cccc(C(=O)NCC2(N3CCCCC3)CCCCC2)c1`, inactive: -14.5%.
On to `CC(C)c1ccc(NC2CCN(C(=O)OC(C)(C)C)CC2)cc1`, for which the inhibition was inactive: 2.74%.
With `COc1cc(OC)c(C(=O)NCC2(N(C)C)CCCCC2)cc1OC` the figure was inactive: -0.94%; with `O=C(NCC1(N2CCOCC2)CCCCC1)c1cc(F)c(F)cc1Cl`, inactive: -2.44%; with `O=C(NCC1(N2CCCCC2)CCCCC1)c1cccc(C(F)(F)F)c1`, inactive: 3.41%.
Consider `CN1CCN(CCOC(=O)C(O)(c2ccccc2)c2ccccc2)CC1`, for which the inhibition was inactive: 0.424%.
With `COc1ccc(NC2CCN(C(=O)OC(C)(C)C)CC2)cc1` the figure was inactive: 4.42%; with `CC(C)c1ccc(C(=O)NCC2(N3CCOCC3)CCCCC2)cc1`, inactive: -0.0869%.
With `COc1cc(C(=O)NCC2(N3CCCCC3)CCCCC2)ccc1OC(F)F` the figure was inactive: 6.68%; with `O=C(NCC1(N2CCOCC2)CCCCC1)c1cc(=O)[nH]c2ccccc12`, inactive: -3.96%; with `O=C(NCC1(N2CCCCC2)CCCCC1)c1ccc(OC(F)F)cc1`, inactive: 0.492%.
As for `O=C(NCC1(N2CCCCC2)CCCCC1)c1cccc([N+](=O)[O-])c1`, the inhibition was inactive: 3.53%.
`CSc1ccc(C(=O)NCC2(N3CCOCC3)CCCCC2)cc1`: the inhibition is inactive: 1.38%.
With `CCN1CCC(Nc2ccc(Cl)cc2)CC1` the figure was inactive: -0.898%; with `N#CC1(Nc2ccccc2)CCN(CCc2ccccc2)CC1`, inactive: 4.52%; with `COc1cc(C(=O)NCC2(N(C)C)CCCCC2)ccc1OC(F)F`, inactive: 7.76%.
Consider `CCOC(=O)N1CCC(Nc2cccc(C)c2)CC1`, for which the inhibition was inactive: 0.926%.
With `CCOc1ccc(C)cc1CN(CCCl)CCCl`, the inhibition is inactive: 10.5%.
With `O=C(NCC1(N2CCCCC2)CCCCC1)c1ccc(F)cc1` the figure was inactive: 0.139%.
As to `O=P1(N(CCCl)CCCl)SCCCS1`, the inhibition is inactive: 2.03%.
With `CCCCOc1ccc(C(=O)NCC2(N3CCOCC3)CCCCC2)cc1` the figure was inactive: 1.35%; with `COc1ccc(NC2CCN(CCc3ccccc3)CC2)c(OC)c1`, inactive: 0.573%; with `CCOC(=O)N1CCC(Nc2ccc(F)cc2)CC1`, inactive: 0.23%.
With `O=C(NCC1(N2CCOCC2)CCCCC1)c1cc2ccccc2o1` the figure was inactive: 3.29%; with `O=C(NCC1(N2CCCCC2)CCCCC1)c1ccc(Cl)nc1`, inactive: 4.66%; with `Cc1cc(C)cc(N(C(=O)c2ccccc2)C2CCN(C(=O)OC(C)(C)C)CC2)c1`, inactive: 2.79%.
With `CCOC(=O)N1CCC(Nc2ccc(OC)cc2)CC1` the figure was inactive: 4.11%.
In the case of `O=C(OC1CN2CCC1CC2)C1c2ccccc2Oc2ccccc21` (stereo not given), the inhibition was inactive: -9.47%.
With `O=C(NCC1(N2CCCCC2)CCCCC1)c1ccc(Cl)s1` the figure was inactive: -0.227%.
In the case of `N#CC1(Nc2ccccc2)CCN(Cc2ccccc2)CC1`, the inhibition is inactive: 4.75%.
With `COc1ccc(Cl)cc1C(=O)NCC1(N2CCOCC2)CCCCC1`, the inhibition was inactive: 5.29%.
As to `O=C(NCC1(N2CCCCC2)CCCCC1)c1ccc(=O)[nH]c1`, the inhibition was inactive: 0.933%.
With `O=C(NCC1(N2CCCCC2)CCCCC1)c1cccs1`, the inhibition is inactive: 1.53%.
As to `COc1ccc(C(=O)NCC2(N3CCCCC3)CCCCC2)cc1`, the inhibition was inactive: 1.23%.
With `COc1ccc(C(=O)NCC2(N3CCCCC3)CCCCC2)c(OC)c1OC` the figure was inactive: 3.1%.
With `CC(C)(C)OC(=O)N1CCC(N(C(=O)c2ccccc2)c2ccc(F)cc2)CC1` the figure was inactive: 1.39%; with `CSc1ccccc1C(=O)NCC1(N2CCCCC2)CCCCC1`, inactive: 1.67%; with `Cc1cccc(NC2(C#N)CCN(Cc3ccccc3)CC2)c1`, inactive: 1.51%.
With `COc1cc(OC)cc(C(=O)NCC2(N3CCOCC3)CCCCC2)c1` the figure was inactive: 0.871%; with `COc1cccc(C(=O)N(c2cc(C)cc(C)c2)C2CCN(C(=O)OC(C)(C)C)CC2)c1`, inactive: 6.41%.
In the case of `CN1CCC(Nc2ccc(Cl)cc2)CC1`, the inhibition was inactive: 2.49%.
With `CCOc1ncccc1C(=O)NCC1(N2CCOCC2)CCCCC1` the figure was inactive: 0.966%; with `CN1CCC(Nc2ccc(F)c(Cl)c2)CC1`, inactive: 4.36%.
With `CCCOc1ccc(C(=O)NCC2(N(C)C)CCCCC2)cc1` the figure was inactive: 0.763%; with `CC(C)(C)OC(=O)N1CCC(Nc2ccccc2)CC1`, inactive: 2.02%; with `O=C(O)C1(Nc2ccccc2)CCN(Cc2ccccc2)CC1`, inactive: -0.318%.
With `Cc1ccccc1NC1(C#N)CCN(Cc2ccccc2)CC1` the figure was inactive: 4.27%.
`CCN1CCC(Nc2cccc(F)c2)CC1`: the inhibition was inactive: 1.35%.
With `O=C(NCC1(N2CCCCC2)CCCCC1)c1ccco1` the figure was inactive: 5.27%.
With `Cn1c(=O)[nH]cc(N(CCCl)CCCl)c1=O` the figure was inactive: 0.898%; with `CN(C)c1ccc(C(=O)NCC2(N3CCCCC3)CCCCC2)cc1`, inactive: 1.12%.
For the compound `COc1cc(OC)cc(C(=O)NCC2(N3CCCCC3)CCCCC2)c1`, the inhibition was inactive: 0.231%.
With `CC(=O)N(c1ccccc1)C1CCNCC1` the figure was inactive: 0.406%.
With `Cc1ccc(NC2(C#N)CCN(Cc3ccccc3)CC2)cc1` the figure was inactive: 0.47%; with `Cc1ccc(C(=O)NCC2(N3CCCCC3)CCCCC2)o1`, inactive: -3.43%; with `Fc1ccccc1NC1CCN(Cc2ccccc2)CC1`, inactive: -2.2%.
Regarding `c1ccc(CN2CCC(Nc3ccccc3)CC2)cc1`, the inhibition is inactive: 5.93%.
Take `CCCN1CCC(Nc2cc(OC)cc(OC)c2)CC1`: the inhibition is inactive: -1.42%.
With `CN(C)C1(CNC(=O)c2cccc(C#N)c2)CCCCC1` the figure was inactive: -4.39%; with `CC(C)(C)OC(=O)N1CCC(N(C(=O)c2ccccc2)c2ccc(Cl)cc2)CC1`, inactive: 3.88%.
For `N#Cc1ccc(C(=O)NCC2(N3CCCCC3)CCCCC2)cc1`, the inhibition was inactive: 1.64%.
With `CCOC(=O)N1CCC(Nc2ccc(C)cc2)CC1` the figure was inactive: -0.188%; with `O=C(OC1CN2CCC1CC2)C1c2ccccc2C=Cc2ccccc21` (stereo not given), inactive: 3.22%; with `CCc1cc(C(=O)NCC2(N3CCCCC3)CCCCC2)sc1C`, inactive: 6.33%.
Regarding `O=C(NCC1(N2CCOCC2)CCCCC1)c1cc(Br)ccc1Cl`, the inhibition is inactive: 3.23%.
`COc1cc(C(=O)NCC2(N3CCOCC3)CCCCC2)cc(OC)c1C`: the inhibition was inactive: 2.41%.
With `COc1ccc(C(=O)NCC2(N3CCOCC3)CCCCC2)cc1OC` the figure was inactive: 2.63%.
